Consider 11 compounds from ChEMBL document CHEMBL1201862, “PubChem BioAssay data set” (2004).

This is one part of the list. No stated cut-off is given here; in the data, active = GI50 up to about 1.1 µM and inactive = higher. Only a part of the results of these assays is listed, not drawn at random.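 Each compound was tested at five concentrations against cells in 96-well plates for 48 hours. At the GI50, growth is halved.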 For some assays here: Results with a measured potency or affinity are listed apart. Some results are limits rather than exact numbers.

Test systems include MOLT-4; Malme-3M; NCI-H226; NCI-H322M; NCI-H460; NCI-H522; OVCAR-3; OVCAR-8; RPMI-8226; SF-268; SF-295; MCF7; MDA-MB-231; MDA-MB-435; MDA-N; NCI/ADR-RES; OVCAR-4; OVCAR-5; PC-3; RXF 631.
Experiment in all cases: NCI tumour cell line growth inhibition, 48 h

Turning to `O[C@H]1[C@@H](O)CC2CCN3Cc4cc5c(cc4[C@H]1C23)OCO5` (stereo not given in full), the GI50 with MOLT-4, in the test with Malme-3M, in the test with NCI-H226, in the test with NCI-H322M, with NCI-H460 and in the test with NCI-H522 was inactive: > 100 µM throughout. Besides, the GI50 in the test on OVCAR-3, with OVCAR-8, with RPMI-8226, with SF-268 and with SF-295 was inactive: > 100 µM throughout.
Take `O=[As](O)(O)O`: the GI50 with MCF7, with MDA-MB-231, with MDA-MB-435, with MDA-N, in the test with MOLT-4 and in the test with Malme-3M was inactive: > 100 µM in each case. In addition, the GI50 with NCI-H226 was inactive: > 100 µM; with NCI-H322M, inactive: > 100 µM; with NCI-H460 it was inactive: > 100 µM; with NCI-H522 it was inactive: 20.4 µM; in the test on NCI/ADR-RES, inactive: > 100 µM; with OVCAR-3, inactive: > 100 µM. Besides, the GI50 with OVCAR-4, with OVCAR-5, with OVCAR-8, with PC-3, in the test on RPMI-8226 and with SF-268 was inactive: > 100 µM each time. The GI50 with SF-295 was inactive: > 100 µM.
`COc1ccc2nccc(C=O)c2c1`: the GI50 is active: 0.258 µM with MCF7; inactive: 9.23 µM in the test on MDA-MB-231; inactive: 3.9 µM with MDA-MB-435; inactive: 2.02 µM with Malme-3M; inactive: 23.8 µM with NCI-H226; inactive: 53.6 µM in the test with NCI-H322M. Besides, the GI50 in the test on NCI-H460 is inactive: 37.2 µM; in the test with NCI-H522, inactive: 29.6 µM; in the test on NCI/ADR-RES it was active: 0.71 µM; in the test with OVCAR-3, active: 0.625 µM; with OVCAR-4, inactive: 4.32 µM; in the test on OVCAR-5 it was inactive: 33.8 µM. Also, the GI50 in the test on OVCAR-8 is active: 0.451 µM; with PC-3, inactive: 3.72 µM; in the test with RPMI-8226 it was active: 0.358 µM; with SF-268, inactive: 5.41 µM; in the test with SF-295, inactive: 5.69 µM.
As for `Cc1ccc2ccc3ccc4ccccc4c3c2c1.O=C1c2cc([N+](=O)[O-])ccc2-c2c1cc([N+](=O)[O-])cc2[N+](=O)[O-]`, the GI50 with MCF7 was inactive: 1.15 µM; with MDA-MB-231, inactive: 4.55 µM; in the test on MDA-MB-435, inactive: 2.72 µM; in the test on MDA-N, inactive: 2.57 µM; in the test on MOLT-4, active: 0.977 µM; in the test with Malme-3M, inactive: 8.38 µM. For the same compound, the GI50 with NCI-H226 is inactive: 7.48 µM; in the test with NCI-H322M, inactive: 4.28 µM; in the test with NCI-H460, inactive: 9.18 µM; in the test with NCI-H522, active: 0.238 µM; with NCI/ADR-RES, inactive: 3.91 µM; with OVCAR-3, inactive: 1.14 µM. Further, the GI50 is active: 0.773 µM in the test with OVCAR-4; inactive: 7.45 µM in the test on OVCAR-5; active: 1.03 µM with OVCAR-8; inactive: 2.34 µM in the test with PC-3; active: 1.02 µM in the test on RPMI-8226; inactive: 1.7 µM in the test on SF-268. Moreover, the GI50 with SF-295 was inactive: 3.91 µM.
Take `Cc1ccc([N+](=O)[O-])c(C[N+](C)(CCCl)CCCl)c1`: the GI50 was inactive: 5.16 µM in the test on MCF7; inactive: 30.3 µM in the test with MDA-MB-231; inactive: 10.4 µM in the test on MDA-MB-435; inactive: 13.5 µM with MDA-N; inactive: 18.1 µM in the test with MOLT-4; inactive: 16.4 µM in the test with Malme-3M. Besides, the GI50 with NCI-H322M was inactive: 19.4 µM; in the test on NCI-H460 it was inactive: 8.71 µM; in the test on NCI-H522 it was inactive: 20.2 µM; in the test on NCI/ADR-RES it was inactive: 22.1 µM; in the test on OVCAR-3, inactive: 17.6 µM; in the test with OVCAR-4, inactive: 13.9 µM. For the same compound, the GI50 was inactive: 42.4 µM in the test on OVCAR-5; inactive: 14.6 µM in the test with OVCAR-8; inactive: 17.8 µM in the test with PC-3; inactive: 7.4 µM in the test on RPMI-8226; inactive: 34.4 µM in the test with SF-268; inactive: 27.4 µM in the test with SF-295.
On to `NNc1nc2nonc2nc1NN`, for which the GI50 in the test with MCF7 was inactive: 14.4 µM; with MDA-MB-231, inactive: 40.8 µM; in the test with MDA-MB-435, inactive: 43.5 µM; in the test with MDA-N, inactive: 39 µM; with MOLT-4, inactive: 40.1 µM; with Malme-3M, inactive: 25.8 µM. Besides, the GI50 in the test on NCI-H226 is inactive: 31.8 µM; in the test with NCI-H322M, inactive: 38.3 µM; with NCI-H460, inactive: 33.6 µM; in the test with NCI-H522, inactive: 10.5 µM; in the test on NCI/ADR-RES it was inactive: 23 µM; in the test on OVCAR-3, inactive: 5.13 µM. Also, the GI50 in the test on OVCAR-4 is inactive: 22.6 µM; in the test on OVCAR-5, inactive: 42.3 µM; in the test with OVCAR-8 it was inactive: 22.4 µM; with PC-3, inactive: 32.1 µM; in the test with RPMI-8226 it was inactive: 43.3 µM; in the test with SF-268, inactive: 55.2 µM. Also, the GI50 with SF-295 was inactive: > 100 µM.
As to `CCCCCCCCCCCCCNCC(C)O` (stereo not given), the GI50 with MCF7 was inactive: 11.6 µM; in the test with MDA-MB-231, inactive: 12.1 µM; with MDA-MB-435, inactive: 11.1 µM; in the test with MOLT-4, inactive: 12.8 µM; in the test on Malme-3M, inactive: 11.6 µM; in the test on NCI-H226, inactive: 14.1 µM. In addition, the GI50 was inactive: 15.6 µM in the test with NCI-H322M; inactive: 7.33 µM with NCI-H460; inactive: 11.9 µM in the test on NCI-H522; inactive: 14.1 µM with NCI/ADR-RES; inactive: 13.2 µM in the test with OVCAR-3; inactive: 13.9 µM with OVCAR-4. Moreover, the GI50 is inactive: 16.6 µM in the test on OVCAR-5; inactive: 4.19 µM in the test with OVCAR-8; inactive: 2.84 µM in the test on RPMI-8226; inactive: 13.7 µM in the test on SF-268; inactive: 12.4 µM with SF-295.
In the case of `Nc1nc2c(ncn2CCN(CCCl)CCCl)c(=O)[nH]1`, the GI50 with MOLT-4, in the test with Malme-3M, in the test on NCI-H322M, in the test with NCI-H460, in the test with NCI-H522 and in the test with OVCAR-3 was inactive: > 100 µM each time. Also, the GI50 in the test with OVCAR-4, in the test with OVCAR-5, in the test with OVCAR-8, in the test on RPMI-8226, in the test with RXF 631 and in the test with SF-268 was inactive: > 100 µM throughout. In addition, the GI50 in the test with SF-295 is inactive: > 100 µM.
Consider `O=[N+]([O-])C1([N+](=O)[O-])COCOC1`, for which the GI50 in the test with MCF7 was inactive: 78.2 µM; in the test on MDA-MB-231, inactive: > 100 µM; in the test with MDA-MB-435 it was inactive: 17.9 µM; with MDA-N it was inactive: 17.7 µM; with MOLT-4, inactive: > 100 µM; in the test on Malme-3M, inactive: 33.4 µM. For the same compound, the GI50 with NCI-H226 is inactive: > 100 µM; in the test on NCI-H322M, inactive: > 100 µM; in the test with NCI-H460, inactive: > 100 µM; in the test with NCI-H522 it was inactive: 12.3 µM; in the test on NCI/ADR-RES, inactive: 56.5 µM; with OVCAR-3 it was inactive: > 100 µM. For the same compound, the GI50 was inactive: > 100 µM with OVCAR-4; inactive: > 100 µM in the test on OVCAR-5; inactive: > 100 µM in the test with OVCAR-8; inactive: > 100 µM in the test with PC-3; inactive: 63.5 µM in the test with RPMI-8226; inactive: > 100 µM in the test on SF-268. Also, the GI50 in the test with SF-295 was inactive: > 100 µM.
Turning to `O[C@@H]1CCN2CCC[C@H]12`, the GI50 in the test on MCF7 was inactive: > 100 µM; with MDA-MB-231 it was inactive: > 100 µM; in the test with MDA-MB-435, inactive: 49.9 µM; in the test with MDA-N, inactive: 98.4 µM; with MOLT-4, inactive: > 100 µM; in the test on Malme-3M, inactive: 71.4 µM. Further, the GI50 in the test on NCI-H226 is inactive: > 100 µM; with NCI-H322M, inactive: > 100 µM; with NCI-H460, inactive: 10 µM; in the test on NCI-H522, inactive: 51.4 µM; in the test on NCI/ADR-RES, inactive: > 100 µM; in the test on OVCAR-4, inactive: > 100 µM. Further, the GI50 with OVCAR-5, in the test on OVCAR-8, in the test with PC-3, in the test on RPMI-8226 and in the test with SF-268 was inactive: > 100 µM throughout.
For the compound `C[S+](N)(=O)CCC(N)P(=O)(O)O` (stereo not given), the GI50 in the test on MCF7 is inactive: > 100 µM; with MDA-MB-231, inactive: > 100 µM; in the test on MDA-MB-435 it was inactive: 41.5 µM; with MDA-N, inactive: 24 µM; in the test on MOLT-4 it was inactive: > 100 µM; with NCI-H226 it was inactive: > 100 µM. For the same compound, the GI50 in the test with NCI-H460 is inactive: > 100 µM; in the test on NCI-H522 it was inactive: 57.3 µM; with NCI/ADR-RES it was inactive: > 100 µM; with OVCAR-3, inactive: > 100 µM; with OVCAR-4 it was inactive: > 100 µM; in the test on OVCAR-5, inactive: > 100 µM. In addition, the GI50 with OVCAR-8, in the test on PC-3, in the test with RPMI-8226 and in the test on SF-295 was inactive: > 100 µM throughout.
